Protein sequences, listed by entry. Tags and fused reporters are not part of them.
UniProt P10275, whole entry T878A: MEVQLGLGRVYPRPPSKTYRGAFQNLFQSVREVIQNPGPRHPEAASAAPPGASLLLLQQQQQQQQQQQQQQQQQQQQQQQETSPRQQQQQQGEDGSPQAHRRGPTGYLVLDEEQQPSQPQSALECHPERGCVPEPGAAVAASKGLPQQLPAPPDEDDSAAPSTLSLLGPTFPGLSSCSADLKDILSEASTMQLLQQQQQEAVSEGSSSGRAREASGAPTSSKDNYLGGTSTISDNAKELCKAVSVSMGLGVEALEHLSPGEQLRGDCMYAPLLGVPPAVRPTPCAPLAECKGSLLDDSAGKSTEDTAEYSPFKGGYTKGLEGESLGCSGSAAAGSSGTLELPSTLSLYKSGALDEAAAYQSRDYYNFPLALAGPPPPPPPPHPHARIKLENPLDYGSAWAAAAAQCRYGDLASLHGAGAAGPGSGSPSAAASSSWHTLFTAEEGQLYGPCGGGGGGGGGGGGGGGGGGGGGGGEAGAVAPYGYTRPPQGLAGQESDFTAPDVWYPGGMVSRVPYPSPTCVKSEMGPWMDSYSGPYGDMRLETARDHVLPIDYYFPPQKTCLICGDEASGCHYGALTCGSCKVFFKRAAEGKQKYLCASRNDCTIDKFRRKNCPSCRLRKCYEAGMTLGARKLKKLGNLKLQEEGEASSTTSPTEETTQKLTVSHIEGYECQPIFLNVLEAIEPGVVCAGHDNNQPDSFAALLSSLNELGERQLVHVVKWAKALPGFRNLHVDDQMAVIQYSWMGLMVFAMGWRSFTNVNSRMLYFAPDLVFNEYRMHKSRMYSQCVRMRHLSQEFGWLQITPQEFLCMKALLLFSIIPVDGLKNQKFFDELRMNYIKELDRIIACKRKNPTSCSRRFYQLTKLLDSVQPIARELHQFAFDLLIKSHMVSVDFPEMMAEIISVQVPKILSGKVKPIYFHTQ

According to patent US11059795B2, “Androgen receptor modulators and methods for their use” (ESSA Pharma, Inc., priority 2018, dated 2021):

Tests used:
[1] = Microsomal stability assay, human liver microsomes; conditions: 1 μM compound, 0.5 mg/mL protein, 37° C.
androgen receptor (AR) = androgen receptor (AR) (Homo sapiens, UniProt P10275, T878A); assay: Androgen-induced PSA (6.1 kb)-luciferase reporter assay in LNCaP cells; format: cell-based; conditions: read-out: PSA-Luc IC50 Range; LNCaP cells transfected with PSA (6.1 kb)-luciferase reporter, R1881 1 nM, 24 h
[2] = Microsomal stability assay, mouse liver microsomes; conditions: 1 μM compound, 0.5 mg/mL protein, 37° C.
[3] = Hepatocyte stability assay, mouse hepatocytes; conditions: 1 μM compound, 0.5 million cells/mL, 37° C.

CC(C)(c1ccc(OCc2ccnc(NS(C)(=O)=O)n2)cc1)c1cc(F)c(OCCCl)c(F)c1
HLM +/− NADPH: Clint (μL/min/mg protein) [1]: *** (*** represent Cl < 12 μL/min/mg protein)
IC50 (androgen receptor (AR)): 500 to 2000 nM
MLM +30/− NADPH: Clint (μL/min/mg protein) [2]: *** (*** represent Cl < 12 μL/min/mg protein)
MH +/− NADPH: Clint (μL/min/million cells) [3]: *** (*** represent Cl < 4 cells μL/min/million cells)
